In patent US9919060B2 (University Court of the University of Dundee, priority 2009, dated 2018):

Molecular target: T1, CYP1B1 (Homo sapiens, UniProt Q16678)
T1 sequence (Q16678 1-543): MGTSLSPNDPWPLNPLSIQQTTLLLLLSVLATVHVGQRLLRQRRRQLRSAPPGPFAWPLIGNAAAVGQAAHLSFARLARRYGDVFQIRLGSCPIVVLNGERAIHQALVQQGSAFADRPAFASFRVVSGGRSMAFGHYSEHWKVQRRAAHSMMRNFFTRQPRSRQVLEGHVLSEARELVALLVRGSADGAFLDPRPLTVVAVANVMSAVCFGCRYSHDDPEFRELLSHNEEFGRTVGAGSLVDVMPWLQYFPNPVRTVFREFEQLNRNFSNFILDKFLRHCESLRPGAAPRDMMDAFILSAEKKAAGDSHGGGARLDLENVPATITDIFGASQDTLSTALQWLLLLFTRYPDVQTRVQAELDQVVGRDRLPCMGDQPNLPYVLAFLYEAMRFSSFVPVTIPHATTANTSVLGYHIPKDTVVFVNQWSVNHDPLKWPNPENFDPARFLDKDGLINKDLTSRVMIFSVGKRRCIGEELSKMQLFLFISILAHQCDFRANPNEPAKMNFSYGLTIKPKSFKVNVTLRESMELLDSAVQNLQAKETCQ
Assay: CYP1B1 substrate prediction model (Gaussian Kernel weighted k-NN)

## O=c1cc(-c2ccccc2)oc2c1ccc1ccccc12 [α-napthoflavone, α-naphthoflavone, reference compound]
  % CYP1B1 substrate inhibition, accuracy (predicted versus actual): 93%
